Target: T1, human EP2 receptors (Homo sapiens, UniProt P43116)
T1 construct: cDNAs representing the complete open reading frames of the human EP2 and EP2 receptors; expressed in transfected cells
Assay: Scatchard analysis of specific [3H]PGE2 binding in 293-S transfectants (EP2 line)
Conditions: read-out: Kd for PGE2 (EP2), 293-S line stably overexpressing recombinant human EP2, selected for compound screening

Amino acid sequences for entries named in this document (tags omitted). A change or cut given only in a name is not applied to a line headed by its entry.
UniProt P43116: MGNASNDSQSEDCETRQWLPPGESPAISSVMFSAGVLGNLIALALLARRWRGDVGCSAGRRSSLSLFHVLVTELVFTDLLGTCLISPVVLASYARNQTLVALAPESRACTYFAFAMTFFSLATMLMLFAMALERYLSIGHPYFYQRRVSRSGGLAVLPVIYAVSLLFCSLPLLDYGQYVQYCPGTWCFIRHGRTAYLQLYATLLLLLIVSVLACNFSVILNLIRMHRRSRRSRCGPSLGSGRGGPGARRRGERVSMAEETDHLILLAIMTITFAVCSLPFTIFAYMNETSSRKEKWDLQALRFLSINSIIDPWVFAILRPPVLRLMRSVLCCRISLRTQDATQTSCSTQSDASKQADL

Kd: 12 nM
SMILES: CCCCC[C@H](O)/C=C/[C@H]1[C@H](O)CC(=O)[C@@H]1C/C=C\CCCC(=O)O [PGE2, Prostaglandin E2]

— patent US6531485B2, “Prostaglandin agonists” (priority 1997, dated 2003)
